# Source: patent US20110224208A1, “NOVEL INHIBITORS OF FLAVIVIRUS REPLICATION” (KATHOLIEKE UNIVERSITEIT LEUVEN, K.U. LEUVEN R&D, priority 2008, published 2011)
# Tested on: not listed separately
# Assay: Proliferation of exponentially growing Huh-5-2 cells (MTS method)
# Conditions: human, CC50, concentration required to inhibit the proliferation of exponentially growing Huh-5-2 cells by 50%; Table 2
row,Compound,CC50 at 72 h [µg/mL]
1,"CCN1CCCC1CN1C(=O)c2ccccc2C(C(=O)Nc2cccc(OC)c2)C1c1cccs1 (centres unmarked) [C67, 2-((1-ethylpyrrolidin-2-yl)methyl)-N-(3-methoxyphenyl)-1-oxo-3-(thiophen-2-yl)-1,2,3,4-tetrahydroisoquinoline-4-carboxamide]",21.1
2,"COCCN1C(=O)c2c(C)cccc2C(C(=O)Nc2cccc(OC)c2)C1c1cccs1 (centres unmarked) [C42, 2-(2-Methoxyethyl)-N-(3-methoxyphenyl)-8-methyl-1-oxo-3-(thiophen-2-yl)-1,2,3,4-tetrahydroisoquinoline-4-carboxamide]",33.1
3,"COCCN1C(=O)c2ccccc2C(C(=O)Nc2ccc3c(c2)S(=O)(=O)C=C3)C1c1cccs1 (centres unmarked) [C198, N-(1,1-dioxobenzo[b]thiophen-6-yl)-2-(2-methoxyethyl)-1-oxo-3-(thiophen-2-yl)-1,2,3,4-tetrahydroisoquinoline-4-carboxamide]",2.33
4,"COCCN1C(=O)c2ccccc2C(C(=O)Nc2onc(C)c2C)C1c1cccs1 (centres unmarked) [C220, N-(3,4-dimethylisoxazol-5-yl)-2-(2-methoxyethyl)-1-oxo-3-(thiophen-2-yl)-1,2,3,4-tetrahydroisoquinoline-4-carboxamide]",81.9
5,"COCCN1C(=O)c2ccccc2C(C(=O)Nc2cccc(OC)c2)C1c1ccnn1C (centres unmarked) [C105, 2-(2-methoxyethyl)-N-(3-methoxyphenyl)-3-(1-methyl-1H-pyrazol-5-yl)-1-oxo-1,2,3,4-tetrahydroisoquinoline-4-carboxamide]",84.5
6,"COCCN1C(=O)c2ccccc2C(C(=O)Nc2ccc3nccnc3c2)C1c1cccs1 (centres unmarked) [C171, 2-(2-methoxyethyl)-1-oxo-N-(quinoxalin-6-yl)-3-(thiophen-2-yl)-1,2,3,4-tetrahydroisoquinoline-4-carboxamide]",72.6
7,"COCCN1C(=O)c2ccccc2C(C(=O)Nc2cccc(OC)c2)C1C#N (centres unmarked) [C143, 3-cyano-2-(2-methoxyethyl)-N-(3-methoxyphenyl)-1-oxo-1,2,3,4-tetrahydroisoquinoline-4-carboxamide]",83.2
8,"COCCN1C(=O)c2ccccc2C(C(=O)Nc2ccc(Oc3ccccc3)nc2)C1c1cccs1 (centres unmarked) [C158, 2-(2-methoxyethyl)-1-oxo-N-(6-phenoxypyridin-3-yl)-3-(thiophen-2-yl)-1,2,3,4-tetrahydroisoquinoline-4-carboxamide]",6.1
9,"COCCN1C(=O)c2ccccc2C(C(=O)Nc2ccc(N3CCOCC3)cc2)C1c1cccs1 (centres unmarked) [C121, 2-(2-methoxyethyl)-N-(4-morpholinophenyl)-1-oxo-3-(thiophen-2-yl)-1,2,3,4-tetrahydroisoquinoline-4-carboxamide]",81.2
10,"COCCN1C(=O)c2ccccc2C(C(=O)Nc2nc(-c3ccccc3)ns2)C1c1cccs1 (centres unmarked) [C194, 2-(2-methoxyethyl)-1-oxo-N-(3-phenyl-1,2,4-thiadiazol-5-yl)-3-(thiophen-2-yl)-1,2,3,4-tetrahydroisoquinoline-4-carboxamide]",11.6
11,"COCCN1C(=O)c2ccccc2C(C(=O)Nc2ccc(-n3cccc3)c(C#N)c2)C1c1cccs1 (centres unmarked) [C222, N-(3-cyano-4-(1H-pyrrol-1-yl)phenyl)-2-(2-methoxyethyl)-1-oxo-3-(thiophen-2-yl)-1,2,3,4-tetrahydroisoquinoline-4-carboxamide]",16.2
12,"COCCN1C(=O)c2ccccc2C(C(=O)Nc2ccc(CN3CCOCC3)cc2)C1c1cccs1 (centres unmarked) [C188, 2-(2-methoxyethyl)-N-(4-(morpholinomethyl)phenyl)-1-oxo-3-(thiophen-2-yl)-1,2,3,4-tetrahydroisoquinoline-4-carboxamide]",45
13,"COCCN1C(=O)c2ccccc2C(C(=O)Nc2ccc3[nH]ncc3c2)C1c1cccs1 (centres unmarked) [C132, N-(1H-indazol-5-yl)-2-(2-methoxyethyl)-1-oxo-3-(thiophen-2-yl)-1,2,3,4-tetrahydroisoquinoline-4-carboxamide]",81.3
14,"COCCN1C(=O)c2ccccc2C(C(=O)Nc2cccc(C)c2)C1c1cccs1 (centres unmarked) [C85, 2-(2-methoxyethyl)-1-oxo-3-(thiophen-2-yl)-N-m-tolyl-1,2,3,4-tetrahydroisoquinoline-4-carboxamide]",75
15,"COCCN1C(=O)c2ccccc2C(C(=O)Nc2ccc3occc3c2)C1c1cccs1 (centres unmarked) [C195, N-(benzofuran-5-yl)-2-(2-methoxyethyl)-1-oxo-3-(thiophen-2-yl)-1,2,3,4-tetrahydroisoquinoline-4-carboxamide]",72.1
16,"COCCN1C(=O)c2ccccc2C(C(=O)Nc2ccc(-c3noc(C)n3)cc2)C1c1cccs1 (centres unmarked) [C187, 2-(2-methoxyethyl)-N-(4-(5-methyl-1,2,4-oxadiazol-3-yl)phenyl)-1-oxo-3-(thiophen-2-yl)-1,2,3,4-tetrahydroisoquinoline-4-carboxamide]",12.4
17,"COCCN1C(=O)c2ccccc2C(C(=O)Nc2cccc(OC)c2)C1c1cc2ccccc2s1 (centres unmarked) [C27, 3-(Benzo[b]thiophen-2-yl)-2-(2-methoxyethyl)-N-(3-methoxyphenyl)-1-oxo-1,2,3,4-tetrahydroisoquinoline-4-carboxamide]",63.8
18,"COCCN1C(=O)c2ccc(Cl)cc2C(C(=O)Nc2cccc(OC)c2)C1c1cccs1 (centres unmarked) [C55, 6-chloro-2-(2-methoxyethyl)-N-(3-methoxyphenyl)-1-oxo-3-(thiophen-2-yl)-1,2,3,4-tetrahydroisoquinoline-4-carboxamide]",88
19,"COCCN1C(=O)c2ccccc2C(C(=O)O)C1c1cccs1 (centres unmarked) [C36, 2-(2-methoxyethyl)-1-oxo-3-(thiophen-2-yl)-1,2,3,4-tetrahydroisoquinoline-4-carboxylic acid]",82.7
20,"COCCN1C(=O)c2ccccc2C(C(=O)NCCOc2ccccc2)C1c1cccs1 (centres unmarked) [C34, 2-(2-Methoxyethyl)-1-oxo-N-(2-phenoxyethyl)-3-(thiophen-2-yl)-1,2,3,4-tetrahydroisoquinoline-4-carboxamide]",40.8
21,"COCCN1C(=O)c2ccccc2C(C(=O)Nc2cccc(OC)c2)C1c1cc(C)no1 (centres unmarked) [C104, 2-(2-methoxyethyl)-N-(3-methoxyphenyl)-3-(3-methylisoxazol-5-yl)-1-oxo-1,2,3,4-tetrahydroisoquinoline-4-carboxamide]",79.9
22,"COCCN1C(=O)c2ccccc2C(C(=O)Nc2ccc(OC(F)(F)F)cc2)C1c1cccs1 (centres unmarked) [C113, 2-(2-methoxyethyl)-1-oxo-3-(thiophen-2-yl)-N-(4-(trifluoromethoxy)phenyl)-1,2,3,4-tetrahydroisoquinoline-4-carboxamide]",66.9
23,"CCN1CCC[C@H]1CN1C(=O)c2ccccc2C(C(=O)Nc2cccc(OC)c2)C1c1cccs1 (stereo partly drawn) [C74, 2-(((S)-1-ethylpyrrolidin-2-yl)methyl)-N-(3-methoxyphenyl)-1-oxo-3-(thiophen-2-yl)-1,2,3,4-tetrahydroisoquinoline-4-carboxamide]",84.4
24,"COCCN1C(=O)c2ccccc2C(C(=O)Nc2cccc(OC)c2)C1c1ccc(C)s1 (centres unmarked) [C12, 2-(2-Methoxyethyl)-N-(3-methoxyphenyl)-3-(5-methylthiophen-2-yl)-1-oxo-1,2,3,4-tetrahydroisoquinoline-4-carboxamide]",69.7
25,"COCCN1C(=O)c2ccccc2C(C(=O)Nc2cccc(OC)c2)C1c1c(F)cccc1F (centres unmarked) [C10, 3-(2,6-Difluorophenyl)-2-(2-methoxyethyl)-N-(3-methoxyphenyl)-1-oxo-1,2,3,4-tetrahydroisoquinoline-4-carboxamide]",49.9
26,"COCCN1C(=O)c2cc(I)ccc2C(C(=O)Nc2cccc(OC)c2)C1c1cccs1 (centres unmarked) [C56, 7-Iodo-2-(2-methoxyethyl)-N-(3-methoxyphenyl)-1-oxo-3-(thiophen-2-yl)-1,2,3,4-tetrahydroisoquinoline-4-carboxamide]",44

# Same assay, conditions: human, CC50, concentration required to inhibit the proliferation of exponentially growing Huh-5-2 cells by 50%; Table 4
row,Compound,CC50 at 72 h [µg/mL]
1,"COCCN1C(=O)c2ccccc2C(C(=O)Nc2ccc(-c3noc(C)n3)cc2)C1c1cccs1 (centres unmarked) [C187, 2-(2-methoxyethyl)-N-(4-(5-methyl-1,2,4-oxadiazol-3-yl)phenyl)-1-oxo-3-(thiophen-2-yl)-1,2,3,4-tetrahydroisoquinoline-4-carboxamide]",> 50

# Tested on: Huh-5-2 cells
# Assay: as above
# Conditions: concentration required to inhibit the proliferation of exponentially growing Huh-5-2 cells by 50%; Table 2
row,Compound,CC50 [µg/mL]
1,"COCCN1C(=O)c2ccccc2C(C(=O)Nc2cccc(OC)c2)C1C (centres unmarked) [C69, 2-(2-methoxyethyl)-N-(3-methoxyphenyl)-3-methyl-1-oxo-1,2,3,4-tetrahydroisoquinoline-4-carboxamide]",125
2,"COCCN1C(=O)c2cc(OC)c(OC)cc2C(C(=O)Nc2cccc(OC)c2)C1c1cccs1 (centres unmarked) [C75, 6,7-dimethoxy-2-(2-methoxyethyl)-N-(3-methoxyphenyl)-1-oxo-3-(thiophen-2-yl)-1,2,3,4-tetrahydroisoquinoline-4-carboxamide]",125
3,"COCCN1C(=O)c2ccc(F)cc2C(C(=O)Nc2cccc(OC)c2)C1c1cccs1 (centres unmarked) [C77, 6-fluoro-2-(2-methoxyethyl)-N-(3-methoxyphenyl)-1-oxo-3-(thiophen-2-yl)-1,2,3,4-tetrahydroisoquinoline-4-carboxamide]",125
4,"COCCN1C(=O)c2ccccc2C(C(=O)Nc2ccc3scnc3c2)C1c1cccs1 (centres unmarked) [C164, N-(benzo[d]thiazol-5-yl)-2-(2-methoxyethyl)-1-oxo-3-(thiophen-2-yl)-1,2,3,4-tetrahydroisoquinoline-4-carboxamide]",20.51
5,"COc1cccc(NC(=O)C2c3ccccc3C(=O)N(Cc3ccco3)C2c2cccs2)c1 (centres unmarked) [C4, 2-(Furan-2-ylmethyl)-N-(3-methoxyphenyl)-1-oxo-3-(thiophen-2-yl)-1,2,3,4-tetrahydroisoquinoline-4-carboxamide]",125
